Target: neurokinin-1 receptor (NK-1) (human) (UniProt P25103)
Test: cell-based or functional assay

Protein sequences, listed by entry. Tags and fused reporters are not part of them.
UniProt P25103, whole entry: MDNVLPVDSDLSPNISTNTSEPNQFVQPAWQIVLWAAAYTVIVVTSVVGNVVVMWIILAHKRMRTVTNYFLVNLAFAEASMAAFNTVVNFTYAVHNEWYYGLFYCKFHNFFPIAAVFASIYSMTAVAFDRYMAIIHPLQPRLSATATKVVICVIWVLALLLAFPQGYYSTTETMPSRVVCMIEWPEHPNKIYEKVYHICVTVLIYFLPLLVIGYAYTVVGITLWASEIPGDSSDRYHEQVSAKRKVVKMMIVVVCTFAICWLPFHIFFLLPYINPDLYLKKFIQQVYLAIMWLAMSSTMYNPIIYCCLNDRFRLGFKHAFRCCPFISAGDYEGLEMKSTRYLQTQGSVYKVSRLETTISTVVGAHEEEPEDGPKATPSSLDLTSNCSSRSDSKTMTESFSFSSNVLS

- reduction of SP-induced β-PPT-I mRNA by 10 nM NK-1-specific antagonist CP-99,994: 7 fold
- β-PPT-I mRNA (quantitative RT-PCR) in BM stroma stimulated with 1 nM SP for 16 h (molecules/µg total RNA): 284
- β-PPT-I mRNA (quantitative RT-PCR) in BM stroma stimulated with 1 nM SP in the presence of 10 nM NK-1-specific antagonist CP-99,994 (molecules/µg total RNA): 42
Substance: substance P (from UniProt P20366 58-68) (peptide)
